From patent US20220259288A1 (LA JOLLA INSTITUTE FOR ALLERGY AND IMMUNOLOGY, published 2022)

Biological target: T1, HLA-DRB1*11:01 (human)
T1 construct: MHC class II molecule; how it was prepared for the assay is not described
Assay: HLA class II competition binding assay

Binder: TLTAFGFASADLIEI [ApoB100 peptide 3563.0005]
- IC50: 6.99 µM
